Laboratory results taken from PubChem BioAssay AID624291 (National Center for Advancing Translational Sciences (NCATS), 2012).
The whole screen tested about 350,000 compounds, of which about 220 (0.063%) were called active. The source calls these results inconclusive, neither active nor inactive. Calls come from the whole dose curve; as a rule, active = well fitted activation curve with a large enough effect; inconclusive = small, poorly fitted or top-dose-only effect; inactive = no such curve, though single readings can be large or run the other way.

Experiment: qHTS for Activators of Integrin-Mediated Alleviation for Muscular Dystrophy; note: nearly all actives have a fitted effect of over 60% in size;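 for activation: 100% = response of the positive control SU9516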
Details: alpha7betagal myoblasts, beta-gal FDG fluorescence, 48 h; activation: at 38.3 µM (top of the series)
Potency is the fitted concentration of half-maximal effect.

Row | Compound | Potency | activation
1 | CC(=O)c1ccc(N2CC2c2ccncc2)cc1 (centres undefined) | inconclusive: 7.94 µM | –
2 | C(Cc1nn[nH]n1)Cc1nn[nH]n1 | inconclusive: 3.55 µM | –
3 | O=[N+]([O-])c1ccc(O)c(/C=N/Nc2ccc([N+](=O)[O-])cc2[N+](=O)[O-])c1 | inconclusive: 1.41 µM | –
4 | CCOP(=O)(Nc1cccc2ccccc12)OCC | inconclusive: 5.01 µM | –
5 | Cc1cc(=O)[nH]c(N[N+](=O)[O-])n1 | – | inconclusive: -58.8%
6 | Cc1c2c(nc3ccccc13)SC(C(Cl)Cl)C2 (centres undefined) | inconclusive: 28.2 µM | –
7 | Cc1ccc2nc3c(c(C)c2c1)CC(C(Cl)Cl)S3 (centres undefined) | – | inconclusive: 0.372%
8 | COc1cc(C(=O)NCC2(N3CCOCC3)CCCCC2)ccc1OCC(C)C | inconclusive: 3.98 µM | –
9 | CCOC(=O)Nc1cccc([As](=O)(O)O)c1 | inconclusive: 15.8 µM | –
